IC50 data for 2 substances are collected here from patent publication US11667675B2, “MASP inhibitory compounds and uses thereof” (Bayer Aktiengesellschaft, priority 2019, dated 2023).

Chains of the proteins cited; added tags and fusions are not shown. Residues count along the entry.
UniProt O00187, 297-444: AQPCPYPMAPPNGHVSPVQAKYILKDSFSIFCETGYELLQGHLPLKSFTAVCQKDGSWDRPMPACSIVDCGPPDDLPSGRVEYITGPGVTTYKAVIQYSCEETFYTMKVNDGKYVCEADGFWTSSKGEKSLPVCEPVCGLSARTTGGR
UniProt O00187, 445-686: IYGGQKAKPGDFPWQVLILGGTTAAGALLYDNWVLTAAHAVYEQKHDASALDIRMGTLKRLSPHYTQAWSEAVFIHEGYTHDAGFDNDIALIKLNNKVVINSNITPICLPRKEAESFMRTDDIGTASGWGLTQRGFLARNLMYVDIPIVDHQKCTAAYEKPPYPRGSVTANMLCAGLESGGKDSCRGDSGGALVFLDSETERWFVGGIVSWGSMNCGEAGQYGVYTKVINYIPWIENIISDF
UniProt Q9JJS8, 444-685: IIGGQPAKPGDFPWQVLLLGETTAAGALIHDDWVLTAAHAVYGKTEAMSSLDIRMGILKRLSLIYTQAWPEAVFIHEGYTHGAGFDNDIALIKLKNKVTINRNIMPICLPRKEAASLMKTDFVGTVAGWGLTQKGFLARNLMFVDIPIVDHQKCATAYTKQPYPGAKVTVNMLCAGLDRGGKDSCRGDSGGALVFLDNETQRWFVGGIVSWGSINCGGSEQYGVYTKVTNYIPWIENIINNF
UniProt Q9JJS8, 296-443: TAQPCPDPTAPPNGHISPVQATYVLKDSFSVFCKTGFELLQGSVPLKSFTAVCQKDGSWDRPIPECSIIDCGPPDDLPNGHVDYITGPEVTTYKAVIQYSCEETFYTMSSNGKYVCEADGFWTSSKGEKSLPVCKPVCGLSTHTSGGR

One assay addresses T1, human MASP2 (Homo sapiens, UniProt O00187).
T1 construct: Ig-kappa secretion signal (N, cleaved yes); made in house; host or cells: HEK293 (ATCC No. CRL-1573)
In words: Biochemical human MASP2 assay (FRET substrate). The settings on record: average IC50. The text has this: (§1) 2.1 Recombinant Expression and Protein Production of Recombinant Human MASP1 and MASP2 Active Proteases.
(§2) The MASP1 or MASP2 expression vectors were transfected into the HEK293 (ATCC No. CRL-1573) cell line using Lipofectamine LTX® Reagent (Thermo-Fischer), as described by the manufacturer. […] The MASP1 and MASP2 proteins were purified from the conditioned media by affinity chromatography on Ni-NTA Superflow resin (Qiagen) as described by the manufacturer.
2.3 Biochemical Human MASP2 Assay
(§3) Recombinant human MASP2 enzyme produced in the HEK 293 cells was diluted in the reaction buffer (50 mM HEPES pH 8,0; 100 mM NaCl; 0.01% CHAPS; 0.5 mM Gluthathione) to the concentration of 20 nM and 25 μl was transferred into each single well of 384-well white microtiter plate (Greiner Bio One 781075). 1 μl of the inhibitor compound solution (dissolved in DMSO, at the corresponding concentration) or pure DMSO as a control was added to the same wells. […] The microtiter plate was incubated for 60-120 min at the temperature of 32 C. The increase of fluorescence intensity was measured in appropriate fluorescence plate reader (e.g. TECAN Ultra) using excitation wavelength of 340 nm and emission wavelength of 490 nm. IC50 values were calculated from percentage of inhibition of human MASP2 activity as a function of test compound concentration.

Another assay concerns the target T2, rat MASP2 (Rattus norvegicus, UniProt Q9JJS8).
T2 construct: Ig-kappa secretion signal (N, cleaved yes); made in house; host or cells: HEK293 (ATCC No. CRL-1573)
In words: Biochemical rat MASP2 assay (FRET substrate). The settings on record: average IC50; recombinant rat MASP2, FRET substrate. The text has this: (§4) 4. Biochemical Rat MASP-1 and MASP-2 Assay
(§5) 4.1 Recombinant Expression and Protein Production of Recombinant Human and Rat MASP1 and MASP2 Active Proteases.
A truncated cDNA sequence of rat MASP2 encoding the fragment corresponding to the amino acids 296-685 with a C-terminal His Tag and N-terminal Ig-kappa secretion signal (SEQ ID No: 5) was subcloned into the mammalian expression vector pcDNA3.1 (Invitrogen).
(§6) The MASP1 or MASP2 expression vectors were transfected into the HEK293 (ATCC No. CRL-1573) cell line using Lipofectamine LTX® Reagent (Thermo-Fischer), as described by the manufacturer. The mature form of the recombinant rat MASP1 and MASP2 proteases were secreted into the culture medium. The MASP1 and MASP2 proteins were purified from the conditioned media by affinity chromatography on Ni-NTA Superflow resin (Qiagen) as described by the manufacturer.
4.3 Biochemical Rat MASP2 Assay.
Recombinant rat MASP2 enzyme produced in the HEK 293 cells was diluted in the reaction buffer (50 mM HEPES pH 8,0; 100 mM NaCl; 0.01% CHAPS; 0.5 mM Gluthathione) to the concentration of 20 nM and 25 μl was transferred into each single well of 384-well white microtiter plate (Greiner Bio One 781075). 1 μl of the inhibitor compound solution (dissolved in DMSO, at the corresponding concentration) or pure DMSO as a control was added to the same wells. The enzymatic reaction was initiated by addition of 25 μl of 30 μM solution of the FRET substrate Abz-IEGRTSED-(Lys)Dnp-NH2 (SEQ ID NO: 9); (ABZ—2-aminobenzoyl; DNP_2,4-dinitrophenyl; custom synthesis by Jerini Peptide Technologies, Berlin) in the reaction buffer. The microtiter plate was incubated for 60-120 min at the temperature of 32 C. The increase of fluorescence intensity was measured in appropriate fluorescence plate reader (e.g. TECAN Ultra) using excitation wavelength of 320 nm and emission wavelength of 420 nm. IC50 values were calculated from percentage of inhibition of rat […] activity as a function of test compound concentration.

For another assay, the target named is T3, human MASP1 (Homo sapiens, UniProt P48740).
T3 construct: Ig-kappa secretion signal (N, cleaved yes); made in house; host or cells: HEK293 (ATCC No. CRL-1573)
T3 sequence (P48740 297-448): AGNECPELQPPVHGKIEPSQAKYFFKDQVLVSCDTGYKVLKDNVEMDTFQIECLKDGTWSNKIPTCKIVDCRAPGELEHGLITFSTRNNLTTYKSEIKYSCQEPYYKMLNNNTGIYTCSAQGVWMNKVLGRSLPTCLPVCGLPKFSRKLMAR
T3 sequence (P48740 449-699): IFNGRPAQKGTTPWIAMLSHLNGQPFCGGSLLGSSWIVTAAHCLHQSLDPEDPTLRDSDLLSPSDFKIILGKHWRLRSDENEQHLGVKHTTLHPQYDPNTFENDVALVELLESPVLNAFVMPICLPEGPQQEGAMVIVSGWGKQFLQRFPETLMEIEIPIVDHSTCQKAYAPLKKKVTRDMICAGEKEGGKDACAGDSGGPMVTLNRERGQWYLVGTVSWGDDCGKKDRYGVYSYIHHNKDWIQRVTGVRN
Put plainly: Biochemical human MASP1 assay (FRET substrate). Conditions: average IC50.
Description: as §1, §2
2.2 Biochemical Human MASP1 Assay
as §3, with “MASP1” for “MASP2”, “320” for “340”, “420” for “490”

In another assay the target is T4, rat MASP1 (Rattus norvegicus, UniProt Q8CHN8).
T4 construct: Ig-kappa secretion signal (N, cleaved yes); made in house; host or cells: HEK293 (ATCC No. CRL-1573)
T4 sequence (Q8CHN8 302-453 limits assumed): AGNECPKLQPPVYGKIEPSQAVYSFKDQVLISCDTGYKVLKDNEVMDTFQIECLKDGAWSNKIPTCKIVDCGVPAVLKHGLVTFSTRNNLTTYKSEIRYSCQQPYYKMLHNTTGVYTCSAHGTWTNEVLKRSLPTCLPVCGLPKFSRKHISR
T4 sequence (Q8CHN8 454-704 limits assumed): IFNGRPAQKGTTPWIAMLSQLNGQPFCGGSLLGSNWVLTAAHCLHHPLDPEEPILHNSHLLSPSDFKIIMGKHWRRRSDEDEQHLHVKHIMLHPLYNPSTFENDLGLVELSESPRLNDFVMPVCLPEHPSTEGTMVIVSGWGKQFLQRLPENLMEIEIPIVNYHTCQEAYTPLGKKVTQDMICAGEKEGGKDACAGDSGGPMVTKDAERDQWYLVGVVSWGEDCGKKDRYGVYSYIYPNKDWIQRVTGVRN
Put plainly: Biochemical rat MASP1 assay (FRET substrate). Conditions: average IC50; recombinant rat MASP1, FRET substrate.
Description: as §4, §5
A truncated cDNA sequence of rat MASP1 encoding the fragment corresponding to the amino acids 302-704 with an C-terminal His Tag and N-terminal Ig-kappa secretion signal (SEQ ID No: 4) was subcloned into the mammalian expression vector pcDNA3.1 (Invitrogen).
as §6
4.2 Biochemical Rat MASP1 Assay.
Recombinant rat MASP1 enzyme produced in the HEK 293 cells was diluted in the reaction buffer (50 mM HEPES pH 8,0; 100 mM NaCl; 0.01% CHAPS; 0.5 mM Gluthathione) to the concentration of 4 nM and 25 μl was transferred into each single well of 384-well white microtiter plate (Greiner Bio One 781075). 1 μl of the inhibitor compound solution (dissolved in DMSO, at the corresponding concentration) or pure DMSO as a control was added to the same wells. The enzymatic reaction was initiated by addition of 25 μl of 40 μM solution of the FRET substrate Dabcyl-[…]-Glu(Edans)-NH2 (SEQ ID NO: 8); (Dabcyl—4-((4-(dimethylamino)phenyl)azo)benzoic acid; Edans—5-[(2-Aminoethyl) amino]naphthalene-1-sulfonyl; custom synthesis by Jerini Peptide Technologies, Berlin) in the reaction buffer. The microtiter plate was incubated for 60-120 min at the temperature of 32 C. The increase of fluorescence intensity was measured in appropriate fluorescence plate reader (e.g. TECAN Ultra) using excitation wavelength of 340 nm and emission wavelength of 490 nm. IC50 values were calculated from percentage of inhibition of rat […] activity as a function of test compound concentration.

What is called IC50 is the concentration at which inhibition is half-maximal.

Regarding “AIC+SRSLP-(Oic)-I-(Pen)+IPD-OH [Example 5]”, the IC50 on human MASP2 was determined as 97 nM; at rat MASP2 it was 49 nM; at human MASP1, 0.96 nM; on rat MASP1 it was 28 nM.
The like results for “((N-Me)G)-IC+SRSLP-(Oic)-I-(Pen)+I-((5-Azaspiro[2.4]heptane-1-carboxylic acid)OH [Example 164]” were, in that order, 57 nM, 28 nM, 4 nM and 79 nM.
